Values quoted from earlier work as cited in patent US20100260680A1, “NOVEL BONE MASS INCREASING AGENT” (ORIENTAL YEAST CO., LTD., priority 2007, published 2010).

Conditions: manufacturer's instructions; cited from earlier work

B1: BMP-2 expressed in CHO cells: BMP-2 (R&D) produced by CHO cells (protein, UniProt P12643 283-396, looked up)
Bone morphogenetic protein 2: QAKHKQRKRLKSSCKRHPLYVDFSDVGWNDWIVAPPGYHAFYCHGECPFPLADHLNSTNHAIVQTLVNSVNSKIPKACCVPTELSAISMLYLDENEKVVLKNYQDMVVEGCGCR
modifications: expressed in CHO cells
notes: BMP-2 (R&D) produced by CHO cells
activity relative to BMP-2 produced by Escherichia coli: approximately 10 times
